# Assay results: patent US5556780A, “CDNAS encoding mouse and rat type-2 angiotensin II receptors and their expression in host cells” (The Board of Trustees for the Leland Stanford Junior …, priority 1993, dated 1996)
# Target: T1, rat AT2 receptor (Rattus norvegicus, UniProt P35351)
# T1 construct: pMRAT2, a rat AT2 receptor full-length cDNA cloned into the expression vector pcDNA I; expressed in transfected cells; host or cells: COS-7 (transient)
# T1 sequence (P35351 1-363): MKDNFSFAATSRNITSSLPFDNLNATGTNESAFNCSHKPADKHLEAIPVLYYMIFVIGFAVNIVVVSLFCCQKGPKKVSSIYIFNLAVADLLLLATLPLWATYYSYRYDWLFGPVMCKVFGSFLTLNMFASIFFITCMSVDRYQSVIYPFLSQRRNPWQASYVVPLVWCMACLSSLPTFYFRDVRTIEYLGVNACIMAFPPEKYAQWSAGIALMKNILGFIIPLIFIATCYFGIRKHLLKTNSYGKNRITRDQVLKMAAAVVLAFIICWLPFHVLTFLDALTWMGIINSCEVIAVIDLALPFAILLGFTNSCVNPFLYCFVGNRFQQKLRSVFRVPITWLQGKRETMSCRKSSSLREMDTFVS
# Assay: Radioligand binding / displacement of 125I-CGP42112A on membranes of pMRAT2-transfected COS-7 cells
# Description: cDNA prepared from size-fractionated (>1 kb) poly(A)^+ RNA (Sprague-Dawley whole rat fetus, 18 days postcoitum) was ligated into an expression vector pcDNAI (Invitrogen), and amplified in 900 pools of 1,000 clones. […] Sequencing of both strands of clone pMRAT2 was done by the dideoxy chain termination method with Sequenase (USB).
# 2 h after incubation at room temperature, bound and free ligands were separated with GF/C filters (Whatman). […] Each experiment was carried out at least twice in duplicate, and the results shown here represent one experiment.
substance,measurement,setting,value
Ang II: Angiotensin II is an octapeptide hormone (DRVYIHPF),order of inhibition potency (competition profiles),"displacement of 125I-CGP42112A, 150 pM radioligand","[Sar^1,Ile^8 ]-Ang II=CGP42112A≥Ang II>PD123319^10,15 >Ang I"
same,increase of binding affinity by DTT,with DTT,50-100%
